The test system of this data set is P37840. Kind of data set: SEC + ELISA; brain lysates (three PD Braak stage 5 or 6, three HC) fractionated by SEC by apparent molecular weight; ELISA on the fractions for the amount of αSyn; high molecular weight fractions 200 kDa to 5 MDa. For orientation: An ELISA detects its analyte on a solid surface through an enzyme-linked reagent.

Consider one substance from publication PMC13278957.

With “α-synuclein (endogenous, human post-mortem brain)”, the “percent of total α-synuclein that is aggregated (high molecular weight SEC fractions)” value is “approx. 0.5% of total”.
